JMJD2E inh – inhibitors of human JMJD2E histone demethylase | JMJD2E catalytic domain, FDH-coupled NADH fluorescence (FDH is formaldehyde dehydrogenase) | Potency, µM (doses to about 57.1 µM), most hits filed as inhibitors | B2RXH2 | 230,000 compounds, 1.6% hits; active = well fitted inhibition curve with a large enough effect, not every such curve was filed as active; inconclusive = small, poorly fitted or top-dose-only effect, or another doubt; inactive = no such curve, though single readings can be large or run the other way; also: nearly all actives have a fitted effect of over 50% in size
Sfp inh – Sfp phosphopantetheinyl transferase inhibition; 310,000 compounds, 3.5% hits; Potency, µM, usual class: inhibitors; AID 1490; Biochemical Sfp PPTase activity, qHTS; Q9F4F7;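 also: the enzyme is Sfp with the accession as filed and its product quenches rhodamine fluorescence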
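Fluorescence-quenching assay: 15 nM Sfp-PPTase preincubated 15 min at room temperature with compound, then 5 uM rhodamine-CoA and 12.5 uM BHQ-2-labelled YbbR peptide added. Fluorescence (ex 525/em 598 nm) read at start and after 30 min; difference gives rate.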
G9a inh – G9a (human) methyltransferase inhibition; 350,000 compounds, 8.8% hits; G9a H3K9 monomethylation, AlphaScreen, 2 h; Q96KQ7; Potency, µM (series often up to 102 µM), usual class: inhibitors; also: nearly all actives have a fitted effect of over 75% in size
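AlphaScreen read-out: biotin-H3K9 peptide (500 nM) methylation by 20 nM enzyme with 20 uM SAM, 2 h at room temperature after 15 min compound preincubation; anti-monomethyl H3K9 antibody plus donor/acceptor beads, 10 min dark.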
LMNA splice mod – changes lamin A minigene splicing in HeLa cells; 200,000 compounds, 0.01% hits; AID 1487; HeLa LMNA splicing GFP/RFP minigene ratio, 48 h; Potency, µM (highest dose often 46.1 µM), most hits filed as inhibitors; active = well fitted inhibition curve with a large enough effect in the signal ratio, with a control signal flat, not every such curve was filed as active; inconclusive = small, poorly fitted or top-dose-only effect, or effect the other way, or a change in a side signal; the % refers to the signal ratio
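Read-out is the ratio of GFP to DsRed2 object intensity, acquired by 488 nm laser-scanning cytometry on HeLa lamin A-EGFP minigene reporter cells. Compound incubation 48 hrs at 37 °C in Opti-MEM with 2% FBS; DMSO 0.5% final.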
ALDH1A1 inh – inhibitors of human aldehyde dehydrogenase 1A1; P00352; Purified ALDH1A1, NADH fluorescence, propionaldehyde substrate; Potency, µM (doses to about 75.3 µM), actives largely listed as inhibitors; 220,000 compounds, 7.3% hits; AID 1030; active = well fitted inhibition curve with a large enough effect, not every such curve was filed as active; inconclusive = small, poorly fitted or top-dose-only effect, or another doubt; inactive = no such curve, though single readings can be large or run the other way
miR-21 reporter – miR-21 reporter, rising signal; HeLa miR-21 FLuc reporter, luciferase, 48 h; Potency, µM (top dose mostly 38.3 µM); 340,000 tested, under 10 active; active = well fitted rising curve with a large enough effect; inconclusive = small, poorly fitted or top-dose-only effect; inactive = no such curve, though single readings can be large or run the other way;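 further: miR-21 action dims this reporter so a rising signal means less miR-21 action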
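HeLa cells stably expressing CMV-driven firefly luciferase with a downstream miR-21 binding sequence, endogenously expressing miR-21, were treated with titrations (up to about 40uM final) for 48 hours at 37 degree Celsius. Luciferase luminescence was read after lysis.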
Numbers stand for hits; 0 = inactive; ? = inconclusive; - = no result given; ! = a repeat was not active; [ ] = dose if it differs, or a comment. A selection: hits, their analogues and other compounds. The true share with any hit is near 13%. Unless noted, calls follow the shape of the dose curve; as a rule, active = well fitted curve in the direction sought with a large enough effect; inconclusive = small, poorly fitted or top-dose-only effect, or another doubt; inactive = no such curve, though single readings can be large; an effect the other way counts as inactive or inconclusive.

SMILES	JMJD2E inh	Sfp inh	G9a inh	LMNA splice mod	ALDH1A1 inh	miR-21 reporter
O=C(OC1CCOC1=O)c1cc(S(=O)(=O)N2CCOCC2)c(Cl)cc1Cl (stereo not drawn)	-	-	0[12.7 µM]	-	-	-
CCC1=Nc2cc(C(=O)NCCCN3CCOCC3)ccc2Sc2ccccc21	-	0	?	-	-	0
CCC1=Nc2cc(C(=O)NCCN3CCCC3)ccc2Sc2ccccc21	-	0	44.7µM	-	-	0
O=C(NCCCN1CCCCC1)c1ccc2c(c1)NC(=O)c1ccccc1S2	-	0	50.1µM	-	-	0
O=C1Nc2cc(C(=O)NCCCN3CCCC3)ccc2S/C1=C/c1ccccc1F	-	0	14.1µM	-	-	0
CCN1CCCC1CNC(=O)c1ccc2c(c1)NC(=O)/C(=C\c1ccc(C)cc1)S2 (stereo not drawn)	-	50.1µM	50.1µM	-	-	?
CCC1C(=O)NCCN1C(=O)c1ccc(OC)c(OC2CCN(C(C)=O)CC2)c1 (stereo not drawn)	-	0	0[12.7 µM]	-	-	0
FC(F)(F)c1ccc(C2[C@H]3CN(Cc4cccnc4)[C@H](c4ccccc4)C34CC2(c2cccnc2)C4)cc1 (stereo partly drawn)	0	35.5µM	0	-	0	?
COC(=O)c1cccc(C23CC4(C2)[C@H](CN(Cc2ccc(C(F)(F)F)cc2)[C@@H]4c2ccccc2)C3c2ccccc2)c1 (stereo partly drawn)	0	0	0[12.7 µM]	-	0	0
COC(=O)c1cccc(C23CC4(C2)[C@H](CN(Cc2ccc(-c5ccccc5)cc2)[C@@H]4c2ccccc2)C3c2ccc(C(F)(F)F)cc2)c1 (stereo partly drawn)	20µM	0	0[12.7 µM]	-	0	0
Cn1nnnc1SCCCNCc1cc(Br)ccc1OCc1ccccc1	-	-	0	?	-	0
Cn1ccc2cc3c(cc21)CCN3C(=O)Nc1cccnc1	35.5µM!	?	9.47µM	0	0	-
O=C(NCCc1ccc(Cl)cc1)c1cc(-c2ccc(Cl)cc2)n[nH]1	-	-	0	-	-	0
CCOC(=O)CCC(=O)Nc1ccc([N+](=O)[O-])cc1C	0	0	-	?	0	0
S=c1[nH]c2ccccc2n2c(=S)[nH]nc12	-	0	1.78µM	-	-	0
O=C(Oc1cc(=O)n2ccccc2n1)c1ccccc1	?	?	17.8µM	0	0	0
O=C(O)c1c(Cl)nc2ccccn12	0	0	?	0	0	0
O=c1c(-c2cc(F)cc(F)c2)nc2cnc(N3CCNCC3)nc2n1-c1ccccc1	-	0	0[0.501 µM]	?	?	-
CCCNC(=O)COC(=O)c1ccc(Cl)c(S(=O)(=O)N2CCCC2)c1	0	0	0	0	7.94µM	0
COc1ccc(C(=O)OCC(=O)NC(Cc2ccccc2)C(C)=O)cc1S(=O)(=O)N1CCCC1 (stereo not drawn)	-	-	56.2µM	-	-	-
COc1ccc(C(=O)OCC(=O)NC2CC2)cc1S(=O)(=O)N(C)Cc1ccccc1	-	-	50.1µM	-	-	-
O=C(COC(=O)c1ccc(Cl)c(S(=O)(=O)NCc2ccccc2)c1)NC1CC1	-	-	0	-	-	-
COC(=O)c1ccc(NC(=O)CC2C(=O)N(c3cccc(OC)c3)C(=O)N2Cc2cccc(OC)c2)cc1 (stereo not drawn)	-	-	0	-	-	0
CC(C)COC(=O)N1C(COCc2ccccc2)CCC=CS1(=O)=O (stereo not drawn)	-	0	-	-	-	-
C=CCN1C(=O)C(Cc2ccc(OCC)cc2)S/C1=N\N=C\c1cccs1 (stereo not drawn)	0	0	0	0	4.47µM	0
SMILES	JMJD2E inh	Sfp inh	G9a inh	LMNA splice mod	ALDH1A1 inh	miR-21 reporter
CN(C)C(=O)/N=N/C(=O)N(C)C	0	-	2.67µM	0	?	-
CN(CC(=O)Nc1cccc(F)c1)C(=O)/C=C/c1cn(Cc2ccccc2)nc1-c1cccnc1	-	-	50.1µM	-	-	-
COc1ccc(NC(=O)CSc2nnc(-c3ccc(OC)cc3)s2)cc1	-	-	0	0	-	0
Cn1c(Cc2ccccc2)nnc1SCC(=O)Nc1ccc2c(c1)OCO2	0	0	0	0	0	0
Cn1cccc1Cc1nnc(SCC(=O)Nc2ccc3c(c2)OCO3)n1CCc1ccccc1	0	0	39.8µM	0	?	0
Cn1cccc1Cc1nnc(SCC(=O)Nc2nc3ccccc3s2)n1CCc1ccccc1	?	0	0[2.33 µM]	0	?	0
Cn1cccc1Cc1nnc(SCC(=O)Nc2ccc3c(c2)OCCO3)n1CCc1ccccc1	0	0	44.7µM	0	14.1µM	0
Cc1nnc(NC(=O)CSc2nnc(Cc3cccn3C)n2CCc2ccccc2)s1	0	0	?	0	0	0
Cn1cccc1Cc1nnc(SCC(=O)Nc2ccc(F)cc2)n1CCc1ccccc1	0	0	44.7µM	0	?	0
CC1CCCC(C)N1C(=O)Cn1c(SCC(=O)Nc2ccc3c(c2)OCO3)nc2ccccc21 (stereo not drawn)	0	0	0	?	5.01µM	0
Cc1nc2ccn(Cc3ccccc3)c(=O)c2cc1C(=O)N1CCN(c2ccccc2F)CC1	-	-	0	0	-	0
COc1ccc(OC)c(NC(=O)CSc2nnc(Cc3cccn3C)n2CCc2ccccc2)c1	0	0	50.1µM	?	0	0
O=C(CSc1nnc(-c2ccccc2F)n1CCc1ccccc1)Nc1ccc2[nH]c(=O)[nH]c2c1	0	0	0	0	?	0
CCC(=O)Nc1ccc(C(=O)CSc2nnc(-c3ccccc3F)n2CCc2ccccc2)cc1	0	0	?	0	22.4µM	0
Cn1cccc1Cc1nnc(SCC(=O)NC2CCCCC2)n1CCc1ccccc1	?	0	44.7µM	0	0	0
Cc1nnc(SCC(=O)NC2CCCC2)n1CCc1ccccc1	-	0	0	-	-	0
COc1ccccc1/C=C/C(=O)OCCN1C(=O)c2ccccc2C1=O	-	0	0	-	-	0
COc1cccc(N2CCN(S(=O)(=O)c3cccc4nsnc34)CC2)c1	0	0	56.2µM	-	0	0
Nc1cc(-c2cccc(F)c2)nn1S(=O)(=O)c1cccc2nsnc12	0	0	0	0	0	0
Nc1cc(-c2ccc(Br)cc2)nn1S(=O)(=O)c1cccc2nsnc12	0	0	?	0	0	0
COc1ccccc1-c1cc(N)n(S(=O)(=O)c2cccc3nsnc23)n1	0	0	50.1µM	-	-	0
Nc1cc(-c2ccc(Cl)cc2)nn1S(=O)(=O)c1cccc2nsnc12	0	0	39.8µM	0	0	0
CCC(C)c1ccccc1NC(=O)COC(=O)C1=COCCO1 (stereo not drawn)	0	0	0	0	0	0
COC(=O)/C=c1/s/c(=C(\C#N)C(=O)NCc2ccco2)n(-c2ccccc2)c1=O	0	0	44.7µM	0	0	0
CCC(C)NC(=O)C(=O)Nc1c2c(nn1-c1ccccc1)CS(=O)(=O)C2 (stereo not drawn)	-	-	?	0	-	0
CCc1c(O)nc(SCC(=O)Nc2ccc(C)cc2)n(C2CCCCC2)c1=O	0	0	?	?	20µM	0
CC1CCN(S(=O)(=O)c2ccc3nc(N4CCN(c5ccc(F)cc5)CC4)ccc3c2)CC1	-	-	0	-	-	0

Assay outcomes (PubChem)
